Results published in publication PMC6013267 (Medicinal chemistry research : an international journal for …, 2018).
Where two headings read alike, the source gives them in different places.

Amino acid sequences for entries named in this document (tags omitted). Residues count along the entry.
UniProt P09483, 31-630: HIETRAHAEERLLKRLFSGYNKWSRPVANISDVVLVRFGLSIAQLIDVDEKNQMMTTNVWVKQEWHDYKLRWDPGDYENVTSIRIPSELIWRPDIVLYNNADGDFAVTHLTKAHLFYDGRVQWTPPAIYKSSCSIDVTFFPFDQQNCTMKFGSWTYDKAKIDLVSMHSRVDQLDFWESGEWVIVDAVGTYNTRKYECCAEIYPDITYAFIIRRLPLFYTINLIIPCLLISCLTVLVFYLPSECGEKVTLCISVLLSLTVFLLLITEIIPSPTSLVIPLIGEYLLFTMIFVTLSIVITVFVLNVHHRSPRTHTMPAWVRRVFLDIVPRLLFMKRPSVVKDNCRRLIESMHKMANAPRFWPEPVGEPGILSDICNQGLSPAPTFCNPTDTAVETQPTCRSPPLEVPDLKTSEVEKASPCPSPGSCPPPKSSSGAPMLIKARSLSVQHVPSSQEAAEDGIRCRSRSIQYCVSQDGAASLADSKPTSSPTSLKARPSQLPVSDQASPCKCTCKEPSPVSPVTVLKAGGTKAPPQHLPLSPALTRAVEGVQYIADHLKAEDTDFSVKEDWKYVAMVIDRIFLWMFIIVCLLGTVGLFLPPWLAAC
UniProt P12390, 25-500: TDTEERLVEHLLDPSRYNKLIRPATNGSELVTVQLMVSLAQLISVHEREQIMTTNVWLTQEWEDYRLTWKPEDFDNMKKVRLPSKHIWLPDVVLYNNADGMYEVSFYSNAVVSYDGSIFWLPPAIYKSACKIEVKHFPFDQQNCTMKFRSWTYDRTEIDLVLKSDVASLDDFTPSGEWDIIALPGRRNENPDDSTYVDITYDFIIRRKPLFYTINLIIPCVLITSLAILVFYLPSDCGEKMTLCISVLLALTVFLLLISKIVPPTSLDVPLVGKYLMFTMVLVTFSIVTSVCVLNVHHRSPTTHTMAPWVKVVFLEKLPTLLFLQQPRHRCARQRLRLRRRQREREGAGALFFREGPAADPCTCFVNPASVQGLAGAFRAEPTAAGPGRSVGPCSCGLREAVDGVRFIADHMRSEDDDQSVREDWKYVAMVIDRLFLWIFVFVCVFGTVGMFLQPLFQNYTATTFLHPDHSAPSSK

Target: α4β2* nAChRs (Rattus norvegicus, UniProt P09483+P12390)
Conditions: read-out: IC50, [3H]cytisine displacement, rat brain slices

“5-(3-methoxy-4-propyloxycinnamate)-3-(2-(S)-pyrrolidinylmethoxy)pyridine [GKS-007]” gave an IC50 (frontal cortex) of 3.18 nM, an IC50 (subiculum) of 5.4 nM and an IC50 (thalamus) of 3.44 nM.
Work on “5-(3′-Ethyl 3-methoxy-4-propyloxycinnamate)-3-(2-(S)-pyrrolidinylmethoxy)pyridine [GKS-006]” yielded an IC50 (frontal cortex) of 5.33 nM, an IC50 (subiculum) of 2.83 nM and an IC50 (thalamus) of 2.8 nM.
